Laboratory results reported in PMC5303876 (2017).
Blank lines part the entries; values can stand above or below the binder they belong to.

Target: PD-L1 protein (F19-R238), refolded from E. coli (human, UniProt Q9NZQ7 19-238)
Assay: SPR

Kd: 4.06 µM
B1: refolded N-loop truncated PD-1 (N33-R147, IgV domain) expressed in E. coli (domain or fragment)
chain: NPPTFSPALLVVTEGDNATFTCSFSNTSESFVLNWYRMSPSNQTDKLAAFPEDRSQPGQDCRFRVTQLPNGRDFHMSVVRARRNDSGTYLCGAISLAPKAQIKESLRAELRVTER

Kd: 2.49 µM
B2: N-loop truncated PD-1 (N33-R147, IgV domain) expressed in insect cells (domain or fragment)
chain: B1 chain
